Tests used:
Format in all cases: cell-based, rat
[1] = target: HaloTag Protein (HTP) on +HTP neurons (Rhodococcus rhodochrous, UniProt P0A3G2, A155T/A167V/A172T/A224E/C128F/C176G/D78G/E160K/E257K/H272N/K175M/K195N/L47V/L88M/N227D/S58T/T264A/Y273L/Y87F); test: biotin-HTL capture dose-response on +HTP cultured neurons
Procedure: Cultured neuronal assays: Preparation of hippocampal cultures: Mixed glial and neuronal cultures were prepared from the hippocampus of postnatal day 0 to 1 Sprague-Dawley rat pups. Separate pools of dissociated cells were transfected via electroporation (LONZA, V4SP-3096) with plasmid constructs, and depending on assay directives, either plated individually or mixed with a different pool of electroporated cells after a 10 min recovery period. Cells were cultured on coverslips (Deckglaser) pre-treated with high molecular weight poly-D-lysine (Sigma, P7405; 0.05 mg/mL) in 24-well plates and maintained in NbActiv4 (BrainBits, Nb4-500) at 37 C, 5% CO2. […]
Various compounds were assessed by measuring their EC50 (nM); the concentration needed to achieve half-maximal capture on +HTP neurons following 15 minutes of incubation with the given ligand.
To enable direct quantification of capture efficiency, commercially available HTL (i.e., HTL.1) were conjugated to biotin via a flexible polyethylene glycol linker of moderate length (PEG12), to mimic the longer (PEG36) linker typically used in an RxDART. […] Dose-response curves were performed by incubating neuronal coverslips with a given ligand for 15 min, followed by washing, fluorescent labeling of biotin, and quantification of capture. […]

ddHTP = ddHTP (Rhodococcus rhodochrous, UniProt P0A3G2, A155T/A167V/A172T/A224E/C128F/C176G/D106E/D78G/E160K/E257K/H272N/K175M/K195N/L246R/L47V/L88M/N227D/N41E/S58T/T264A/V245L/W107G/Y273L/Y87F); test: binding of HTL.2 to double dead control protein ddHTP in cultured neurons
Description: biotin-HTL: Dissociated neurons were electroporated with either the +HTP or ddHTP construct and cultured as described above. A dilution series for both the biotin-PEG12-HTL.1 and biotin-PEG12-HTL.2 compounds was made in BASE solution containing 1% BSA (Sigma A7904), representing 12 final concentrations (in uM) between 10 and 0.001. After a brief rinse in BASE+BSA to acclimate the live neurons to room temperature and avoid temperature effects to the binding kinetics, a single coverslip was incubated in one of the twelve dilutions for 15 min, washed twice in BASE+BSA, then incubated in a 1:500 dilution of Streptavidin-AlexaFluor488 (Invitrogen) for 15 min. The neurons were rinsed four times then transferred to a glass-bottom imaging plate containing BASE+BSA. Each coverslip was imaged in its entirety by combining several 10× images (TR at 10 ms; GFP at 100 ms) together using the Olympus CellSens software stitching algorithm. A dose-response curve was created from the individual coverslips using MatLab.
Mutation of the HTP at its D106 residue was first explored, to which HTL forms a covalent bond. […] Next, the distributed mutations of the catalytic triad was explored, combining the subtle D106E mutation with W107G and N41E mutations. A second strategy was also explored, in which the tunnel entrance was blocked by installing bulky side-chains, with V245L and L246R mutations.

endogenous AMPARs = test: all-optical cultured-neuron assay of AMPAR-dependent synaptic transmission; conditions: YM90K payload

Q: Which results are given for `COc1cc(CCCCl)ccc1CCOCCNC(=O)c1ccc(CNC(=O)CCOCCOCCOCCOCCOCCOCCOCCOCCOCCOCCOCCOCCNC(=O)CCCC[C@@H]2SC[C@@H]3NC(=O)N[C@@H]32)cc1`?
A: HTL50 (t=15 m) improvement over HTL.1 ([1]; biotin payload): 40 fold; EC50 ([1]; read-out: HTL50 (t=15 m), side-by-side capture experiments on cultured neurons, biotin-PEG12 conjugate, 15 min): 10 nM; binding to ddHTP (ddHTP): zero measurable binding; HTL50 (t=15 m) change, HTL.1 to HTL.2 (endogenous AMPARs): 10 fold

— patent publication US20250213700A1, “COMPOUNDS, COMPOSITIONS, AND METHODS FOR CELL-SPECIFIC PHARMACOLOGY” (Duke University, priority 2022, published 2025)
